Measured values: IntAct's records for PubMed 12878161

B1: Tripartite motif-containing protein 5 (Homo sapiens), Q9C035-4 (parent)
chain: MASGILVNVKEEVTCPICLELLTQPLSLDCGHSFCQACLTANHKKSMLDKGESSCPVCRISYQPENIRPNRHVANIVEKLREVKLSPEGQKVDHCARHGEKLLLFCQEDGKVICWLCERSQEHRGHHTFLTEEVAREYQVKLQAALEMLRQKQQEAEELEADIREEKASWKTQIQYDKTNVLADFEQLRDILDWEESNELQNLEKEEEDILKSLTNSETEMVQQTQSLRELISDLEHRLQGSVMELLQGVDGVIKRTENVTLKKPETFPKNQRRVFRAPDLKGMLEVFRELTDVRRYWGWSAMARSRFTATSTSQIQAILLPQPPK

Variants of: B1
Conditions: with ub2d2_human UBE2D2, P62837

Variant	effect of a mutation on the interaction
C15A;C18A	decreasing interaction
